# scFv variants of Ab-14 (light chain) against a SARS-CoV-2 spike peptide

Reference: Engelhart et al. 2022, doi:10.1038/s41597-022-01779-4. File: FLAb, binding data.

Target peptide (SARS-CoV-2 spike, HR2 region): PDVDLGDISGINAS

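The starting antibody came from a phage panning campaign against this peptide. AAYL50 was designed without a model: most single CDR substitutions and a random sample of double and triple ones. The scFvs were displayed on barcoded MATa yeast, the peptide on MATalpha yeast. Pairs that bind mate more often; barcode pairs of the diploids are counted by sequencing. Read counts were normalised to the haploid input and turned into Kd by a linear fit to BCL2-family pairs of known affinity, for each replicate. The assay was run in three technical replicates.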

Parent scFv Ab-14: VH joined to VL by a (GGGGS)3 linker. Changes lie in the light chain CDRs alone.
VH: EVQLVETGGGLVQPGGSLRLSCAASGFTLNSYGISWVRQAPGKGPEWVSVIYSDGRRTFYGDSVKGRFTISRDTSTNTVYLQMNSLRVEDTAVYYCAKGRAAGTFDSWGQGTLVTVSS
VL: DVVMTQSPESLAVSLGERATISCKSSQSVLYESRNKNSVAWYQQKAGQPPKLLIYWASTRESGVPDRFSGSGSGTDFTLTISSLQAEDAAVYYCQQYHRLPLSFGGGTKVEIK

Changes read parent residue, position, new residue, counted from the first residue of the VL shown.
All variants listed here change S26 of the VL, counted from its first residue.
Affinities are written as log10 Kd with Kd in nM; a lower number is a better binder.
The mean shown is taken over the replicates in which the pair was detected.
Where no diploid with the target was found in that replicate, the entry reads "ND": below detection, most likely a poor binder, though not proof of it.
Background: pairings of library AAYL50 with three empty control strains gave a value in 18% of cases (median 4.19, 5th percentile 2.99). Values in that range, when seen in few replicates, are hard to tell from nonspecific mating.

- S26D/N35P/E61V -> 0.44, 0.74, 0.52 (mean 0.57)
- S26T/Y31F -> ND, ND, ND
- S26F/A57K/P101V -> ND, ND, ND
- S26F/S28D/S33D -> ND, 1.82, 3.15 (mean 2.48)
- S25M/S26Y/A57K -> 1.74, 1.76, 1.84 (mean 1.78)
- S26P/S103W -> 2.54, 2.47, 2.73 (mean 2.58)
- S26M/R34V/E61T -> 1.14, 1.43, 1.35 (mean 1.31)
- S26N/R60E/Q95Y -> ND, ND, ND
- S26L/N35W/S38C -> ND, ND, ND
- S26G/Q27W/W56A -> 0.46, 0.73, 0.60 (mean 0.60)
- S26Q/A40K -> ND, ND, ND
- S26P/A40T -> ND, ND, ND
- S26N/R34H/S58H -> 1.64, 1.65, 1.73 (mean 1.67)
- S26T/W56Q/E61R -> 0.41, 0.58, 0.42 (mean 0.47)
- S26Q/S33C/S62A -> 1.93, 2.29, 2.80 (mean 2.34)
- S26Q/V29G/L102F -> 0.29, 0.64, 0.50 (mean 0.47)
- S26R/A40R/Q95C -> ND, ND, ND
- S26M/Y31P/V39F -> 3.06, 3.69, 2.86 (mean 3.21)
- S26C/S28E/L102A -> ND, 2.76, ND
- S26T/V29E/Y97R -> 2.25, 2.67, 2.11 (mean 2.35)
- S26W/R34H -> 2.19, 2.62, 2.61 (mean 2.47)
- S26Y/Y31H/T59S -> 2.85, 2.54, 3.37 (mean 2.92)
- S26K/Y31G/N37F -> 1.65, 1.76, 2.65 (mean 2.02)
- S26I/S62W/Q96K -> 6.36, 5.50, ND (mean 5.93)
- S26E/R34T -> 0.23, 0.35, 0.45 (mean 0.34)
- S26W/V29R/R60P -> ND, ND, ND
- S26L/Q96Y/L100E -> 6.60, ND, ND
- S26P/T59K/R99K -> 1.11, 1.12, 1.19 (mean 1.14)
- S26T/S28C/Q96T -> ND, ND, 5.45
- S26P/K36W/P101Y -> ND, ND, ND
- S26K/Y31G/R60H -> 3.49, 3.81, ND (mean 3.65)
- S26M/S62F/R99W -> 3.39, 2.61, 3.55 (mean 3.18)
- K24Y/S26L/H98F -> ND, 4.71, ND
- S26C/K36Y/Q96L -> ND, ND, ND
- S26T -> 0.69, 1.10, 1.06 (mean 0.95)
- S25R/S26R/Q96V -> ND, ND, ND
- S26W/P101M/L102E -> 3.99, ND, ND
- S26W/A57I/E61V -> ND, ND, ND
- S26D/L30K/L100Y -> ND, ND, ND
- S26C/V39S/L100K -> 3.23, ND, 4.15 (mean 3.69)
- S26F/Q27K/S28N -> 0.95, 1.17, 0.83 (mean 0.99)
- S26K/S33W/A40P -> 4.75, ND, ND
- S26N/R34C/Q96K -> ND, 3.67, 5.01 (mean 4.34)
- S26D/V39K/R99C -> ND, ND, ND
- S26N/E32F/L100M -> ND, ND, ND
- S26Y/E61Y/S103I -> 1.14, 1.43, 1.73 (mean 1.43)
- S26C/V39C/L102D -> 5.11, ND, 4.36 (mean 4.74)
- S26D/S28Q/Q96R -> ND, ND, 3.70

Extract of 6 entries:

| changes | log10 Kd, replicates | log10 Kd (nM), mean |
|---|---|---|
| S26T/W56Q/E61R | 0.41, 0.58, 0.42 | 0.47 |
| S26N/R60E/Q95Y | ND, ND, ND | ND |
| K24Y/S26L/H98F | ND, 4.71, ND | 4.71 |
| S26P/A40T | ND, ND, ND | ND |
| S26N/R34H/S58H | 1.64, 1.65, 1.73 | 1.67 |
| S26P/S103W | 2.54, 2.47, 2.73 | 2.58 |

Parent in this assay: reference entry 0.65, copy in this library 1.68.